Earlier results, collected in patent publication US10335367B2, “Use of selected anticholinergic zwitterions” (Bodor Laboratories, Inc., priority 2015, dated 2019).
Read-outs that look alike come from different tables or passages of the source.

Tested on: rabbit eyes
Settings: cited from earlier work; for pupil dilation in the contralateral, untreated eye: administered in one eye

## C[N+]1(CC(=O)[O-])CCC(OC(=O)[C@](O)(c2ccccc2)C2CCCC2)C1 (stereo partly shown)
  pupil dilation in the contralateral, untreated eye: no pupil dilation in the contralateral untreated eye
Listed as compound (ii)
  pupil dilation in the contralateral, untreated eye: did not cause pupil dilation in the contralateral, untreated eye
rabbit, in vivo
  irritation reactions (eye-closing, lacrimation, mucous discharge): not cause any observable irritation reactions
Topical administration
  mydriatic activity in rabbit eyes: local mydriatic activity after topical administration but only with a short duration of action
